# Measurements published in US11203613B2, “Peptidomimetic proteasome inhibitors” (CORNELL UNIVERSITY, priority 2017, dated 2021).
# Biological target: Human Constitutive (Hu C-20S) β5 Active Subunit (Homo sapiens, UniProt P28074)
# Assay: IC50 determination, human constitutive 20S proteasome β5c (suc-LLVY-AMC hydrolysis)
# Conditions: read-out: Hu c-20S IC50; Table 2; several values in a cell are repeat determinations
# Method: Experiments to determine IC50 values against β5i and β5c for compounds were carried out in 96-well plates. In brief, 1 μL of compound in a 3× series dilution in DMSO at concentration ranging from 100 μM-0.0017 μM were spotted to the bottom of a black 96-well plate with solid bottom. 100 μL of reaction buffer (20 mM THEPES, 0.5 mM EDTA, pH7.5, 0.1% BSA) containing enzyme (final concentration was 0.2 nM for c-20S, and 0.4 nM for i-20S) and substrate (25 μM for suc-LLVY-AMC for β5c and 15 μM for Ac-ANW-AMC) were dispensed into each well, and the plate was then spun at 1000× rpm for 1 minute and then shaked on a shaker for 1 minute. Time course of the hydrolysis of each well was followed by recording the fluorescence of product AMC (Ex 360 nm and Em 460 nm) on aSpectraMax M5 plate reader for 1.5-2 hours. Initial reaction velocity of each well was fit to adose-dependent inhibition equation using PRISM to determine the IC50. IC50S were determined only for β5i and β5c (Table 2). SDS was used as activator for both enzymes at concentration 0.02%.
row,Structure (SMILES),IC50
1,CC[C@H]1CCCCN1C(=O)C[C@H](NC(=O)C1CC(C)(C)C1)C(=O)N[C@@H](C)c1nc2c(F)cccc2[nH]1,4.41 µM
2,"C[C@H](NC(=O)[C@H](CC(=O)N1CCCC[C@@H]1C)Nc1nc2ccccc2o1)c1ncc(-c2ccc(F)cc2F)[nH]1 [CEN-109, (S)-2-(Benzo[d]oxazol-2-ylamino)-N—((S)-1-(5-(2,4-difluorophenyl)-1H-imidazol-2-yl)ethyl)-4-((S)-2-methylpiperidin-1-yl)-4-oxobutanamide]",7.26 µM
